In ChEMBL document CHEMBL1126139, “Beta-proline analogues as agonists at the strychnine-sensitive glycine receptor” (J Med Chem, 1992):

Target: T1, Glycine receptor subunit alpha-1 (Rattus norvegicus, UniProt P07727)
T1 sequence (P07727 whole entry): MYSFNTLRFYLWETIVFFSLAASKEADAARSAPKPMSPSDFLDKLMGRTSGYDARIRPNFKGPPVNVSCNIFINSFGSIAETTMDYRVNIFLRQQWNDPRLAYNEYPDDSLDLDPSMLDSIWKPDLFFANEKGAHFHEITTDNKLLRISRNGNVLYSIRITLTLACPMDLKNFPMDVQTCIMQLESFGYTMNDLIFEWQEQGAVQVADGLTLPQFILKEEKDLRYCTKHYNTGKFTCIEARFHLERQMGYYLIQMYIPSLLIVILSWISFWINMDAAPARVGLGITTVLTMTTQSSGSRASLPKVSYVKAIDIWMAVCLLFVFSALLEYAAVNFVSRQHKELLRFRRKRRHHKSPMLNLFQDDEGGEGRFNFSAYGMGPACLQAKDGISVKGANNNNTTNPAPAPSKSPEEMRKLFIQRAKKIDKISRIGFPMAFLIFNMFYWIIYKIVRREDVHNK
Assay: Inhibitory concentration required to inhibit [3H]strychnine binding to […]
Outline: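 [3H]Strychnine displacement; IC50 obtained by nonlinear curve fitting to a Langmuir isotherm.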

Structure (SMILES): NCC(=O)O [GLYCINE]
- IC50: 6.2 µM
